How the values were obtained:
Androgen receptor = Androgen receptor (Homo sapiens, UniProt P10275); test: Potency index, ratio of galeterone DC50 to test compound DC50 for induction of androgen receptor degradation in human LNCaP cells; assay type: cell-based
[1] = test system: Androgen receptor (Homo sapiens), P10275 [F877L]; test: Antagonist activity at androgen receptor F876L mutant expressed in HEK293 cells assessed as reduction in DHT-induced transcriptional activation of androgen receptor incubated for 24 hrs by Steady-Glo assay relative to control; assay type: cell-based; design: scale not given: the % may be the effect or the level left; details: filed as antagonist

The chains behind the UniProt entries cited, without tags or fusion partners.
UniProt P10275, whole entry F877L: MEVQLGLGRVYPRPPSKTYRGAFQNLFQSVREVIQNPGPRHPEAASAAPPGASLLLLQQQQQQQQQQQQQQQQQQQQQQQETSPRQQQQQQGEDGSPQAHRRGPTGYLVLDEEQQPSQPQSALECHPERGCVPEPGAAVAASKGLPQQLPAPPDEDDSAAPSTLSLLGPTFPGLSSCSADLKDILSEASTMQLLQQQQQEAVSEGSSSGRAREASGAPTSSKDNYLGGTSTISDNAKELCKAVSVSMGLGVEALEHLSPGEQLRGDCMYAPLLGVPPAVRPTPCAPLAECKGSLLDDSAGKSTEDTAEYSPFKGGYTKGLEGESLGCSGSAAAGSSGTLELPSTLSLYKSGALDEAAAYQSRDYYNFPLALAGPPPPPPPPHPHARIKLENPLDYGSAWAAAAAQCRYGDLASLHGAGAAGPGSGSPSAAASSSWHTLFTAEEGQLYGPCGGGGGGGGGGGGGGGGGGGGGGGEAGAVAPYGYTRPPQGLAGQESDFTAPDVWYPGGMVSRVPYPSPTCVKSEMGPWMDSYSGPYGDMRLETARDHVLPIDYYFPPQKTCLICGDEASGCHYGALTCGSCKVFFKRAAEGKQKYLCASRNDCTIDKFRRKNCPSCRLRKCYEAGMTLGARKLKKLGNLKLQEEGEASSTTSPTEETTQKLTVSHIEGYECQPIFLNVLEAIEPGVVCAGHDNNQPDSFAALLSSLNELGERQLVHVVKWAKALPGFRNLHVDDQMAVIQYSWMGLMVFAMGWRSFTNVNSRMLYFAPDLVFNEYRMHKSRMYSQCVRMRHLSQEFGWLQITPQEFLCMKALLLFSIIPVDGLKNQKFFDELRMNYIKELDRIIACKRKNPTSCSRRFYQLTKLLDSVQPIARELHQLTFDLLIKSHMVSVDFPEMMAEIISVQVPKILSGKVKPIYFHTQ

Structure (SMILES): Cc1cn(C2=CCC3C4CC=C5C[C@@H](NC(=O)c6ccncc6)CC[C@]5(C)C4CC[C@]23C)cn1 (some centres not stated)
- Ratio (Androgen receptor): 2.5
- Activity [1]: 117%

Reference: ChEMBL document CHEMBL5331145, “Discovery of a Novel Bifunctional Steroid Analog, YXG-158, as an Androgen Receptor Degrader and CYP17A1 Inhibitor for the Treatment of Enzalutamide-Resistant Prostate Cancer” (J Med Chem, 2023)
